Measurements from patent US7482427B2, “Positive modulator of bone morphogenic protein-2” (BioSurface Engineering Technologies, Inc., priority 2002, dated 2009).

Assays:
C3H10T½ cells = test: Alkaline phosphatase (ALP) activity assay in C3H10T½ cells; assay type: cell-based, Murine; settings: BMP-2 alone
Protocol: Alkaline phosphatase (ALP) Activity Assay. C2C12 cells and C3H10T½ cells were cultured at 37° C. in a humidified atmosphere of 5% CO2 and 95% air, with DMEM/F12 medium supplemented with 10% serum, penicillin/streptomycin. For the BMP-2 induced ALP assay, cells were plated in 96-well (1×10^4/well) dishes in regular growth medium. Twenty-four hours later, when the cells formed a confluent monolayer, medium was replaced with DMEM/F12, supplemented with 2% serum and containing indicated concentration of BMP-2 and/or B2A2. At 4-5 days post induction, ALP activity was determined as described by Akiyama and colleagues (Akiyama et al. 1997, Exp Cell Res 235(2):362-9.) with modifications. Briefly, cells were washed once with phosphate-buffered saline (PBS) and lysed with 0.1% Triton×100 in 10 mM Tris HCl, pH 9.0. Protein concentration was determined using the BCA Protein Assay Kit (Pierce Biotechnology, Rockford, Ill.). Then ALP activity was measured by adding ALP buffer (1 M diethanolamine, 0.5 mM MgCl2, 1 mg/mL p-nitrophenylphosphate, pH 9.0), incubating in 37° C., and absorbance (405 nm) read at 15, 30 and 60 minutes using a microplate spectrophotometer (Molecular Devices, Sunnyvale, Calif.). The activity was expressed as O.D. per mg protein per hour. […]

Fisher 344 rats = test: In vivo Matrigel plug assay (subcutaneous implant); settings: single agent in Matrigel, 14 days
Protocol: In vivo Matrigel™ plug assay. The in vivo model involved subcutaneous implant in young adult Fisher 344 of growth factor-reduced Matrigel with and without BMP-2 and B2A2. Animals were anesthetized before all procedures by intra peritoneal injections of ketamine (50 mg/kg) and xylazine (5 mg/kg). Growth factor reduced Matrigel™ at 4° C. (liquid state) was mixed with saline (control), BMP-2 (R&D Systems, Minneapolis, Minn.), B2A2-K-NS, or B2A2-K-NS plus BMP-2. Aliquots of 0.5 mL of Matrigel™ with additives as above were injected subcutaneously on the upper flanks of the rats. The injection sites were clipped with stainless steel clips to prevent leakage. The Matrigel™ was kept on ice until the time of injection, as were the needle and syringe (to prevent gelling in the needle). The animals were subsequently euthanized after 14 days, the gel surgically removed, measured with calipers, and fixed in buffered formalin.
The fixed specimens were processed for histological examination and stained with either hemotoxylin and eosin or toluidine blue O (Histoserv, Inc., Germantown, Md.).
B2A2-K-NS analog was tested for its effect in vivo. Referring now to FIG. 9, a comparison of the area of explants excised from an area implanted with Matrigel™ containing B2A2-K-NK analog with and without BMP-2 is illustrated. Adult rats were implanted with Matrigel™ with and without BMP-2 and B2A2-K-NS and after 14 days the residual gel was surgically removed and measured. […] The morphology of the explants differed with differing explant compositions. Animals receiving only carrier had residual plugs that were small and tended to have morphology with poor cellular organization.

BMP-2: E. coli or Chinese hamster ovary (CHO) cell-derived recombinant human BMP-2 from R&D Systems
threshold for BMP-2 induction of ALP (C3H10T½ cells): ~30 ng/mL
EC50 for BMP-2 (C3H10T½ cells; ALP induction): ~0.3 µg/mL
morphology of the explants (histology) (Fisher 344 rats): increased numbers of cells accompanied by a moderate amount of organization that was consistent with developing membranous ossification
palpable implant sites upon inspection (Fisher 344 rats): Nearly all of the implant sites
size (area) of explants versus carrier only (Fisher 344 rats): significantly larger explants
